# Reference: US11542475B2, “3D microphysiologic system” (Northwestern University, priority 2014, dated 2023)
# Key:
# [1] = Stability of FSH and hCG in the microfluidic system (growth medium without follicles); details: 48 hours incubation
# follicles = assay: Follicle culture in microfluidic ovarian subsystem: progesterone secretion after hCG; assay type: cell-based
substance,measurement,setting,value
"hCG: human chorionic gonadotropin, used to trigger ovulation",stability in the microfluidic system,[1],stable
same,progesterone secretion after hCG treatment,follicles,significantly increased
